“And” between values parts separate entries of the source, which are not always exact repeats. Identical values can stand only once. Values belong to the molecule of their own block, whether it stands above or below them.
Assays:
[1] = target: Sodium-dependent dopamine transporter (Rattus norvegicus, UniProt P23977)
D(2) dopamine receptor = D(2) dopamine receptor (Rattus norvegicus, UniProt P61169)
Histamine H1 receptor = Histamine H1 receptor (Rattus norvegicus, UniProt P31390)
[2] = target: Sodium-dependent serotonin transporter (Rattus norvegicus, UniProt P31652)

The chains behind the UniProt entries cited, without tags or fusion partners.
UniProt P23977, whole entry: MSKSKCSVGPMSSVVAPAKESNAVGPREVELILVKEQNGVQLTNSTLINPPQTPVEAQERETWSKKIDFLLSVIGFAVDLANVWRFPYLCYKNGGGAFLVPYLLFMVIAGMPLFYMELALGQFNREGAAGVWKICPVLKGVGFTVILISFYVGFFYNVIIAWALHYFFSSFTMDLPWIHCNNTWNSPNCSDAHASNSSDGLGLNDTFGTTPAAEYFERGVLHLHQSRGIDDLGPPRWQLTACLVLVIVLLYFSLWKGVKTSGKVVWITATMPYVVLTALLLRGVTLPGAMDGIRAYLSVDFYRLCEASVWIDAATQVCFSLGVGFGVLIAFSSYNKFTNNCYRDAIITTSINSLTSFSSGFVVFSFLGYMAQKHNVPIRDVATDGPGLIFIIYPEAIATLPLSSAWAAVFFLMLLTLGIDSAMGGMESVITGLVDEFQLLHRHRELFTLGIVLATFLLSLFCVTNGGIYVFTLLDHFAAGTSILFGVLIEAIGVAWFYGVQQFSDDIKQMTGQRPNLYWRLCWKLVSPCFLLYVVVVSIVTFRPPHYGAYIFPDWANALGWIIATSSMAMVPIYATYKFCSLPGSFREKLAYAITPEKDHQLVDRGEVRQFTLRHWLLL
UniProt P61169, whole entry: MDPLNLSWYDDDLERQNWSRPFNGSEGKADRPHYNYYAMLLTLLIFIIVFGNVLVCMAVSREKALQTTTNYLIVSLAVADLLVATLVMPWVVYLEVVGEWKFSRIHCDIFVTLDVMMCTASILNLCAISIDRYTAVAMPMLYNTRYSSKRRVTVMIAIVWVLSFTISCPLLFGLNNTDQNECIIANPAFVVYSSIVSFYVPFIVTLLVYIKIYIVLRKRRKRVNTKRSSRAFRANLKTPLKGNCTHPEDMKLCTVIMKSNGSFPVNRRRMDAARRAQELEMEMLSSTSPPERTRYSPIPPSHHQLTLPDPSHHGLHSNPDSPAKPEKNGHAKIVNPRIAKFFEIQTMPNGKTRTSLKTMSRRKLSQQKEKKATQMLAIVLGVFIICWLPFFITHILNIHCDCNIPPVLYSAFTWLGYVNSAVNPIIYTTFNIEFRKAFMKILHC
UniProt P31390, whole entry: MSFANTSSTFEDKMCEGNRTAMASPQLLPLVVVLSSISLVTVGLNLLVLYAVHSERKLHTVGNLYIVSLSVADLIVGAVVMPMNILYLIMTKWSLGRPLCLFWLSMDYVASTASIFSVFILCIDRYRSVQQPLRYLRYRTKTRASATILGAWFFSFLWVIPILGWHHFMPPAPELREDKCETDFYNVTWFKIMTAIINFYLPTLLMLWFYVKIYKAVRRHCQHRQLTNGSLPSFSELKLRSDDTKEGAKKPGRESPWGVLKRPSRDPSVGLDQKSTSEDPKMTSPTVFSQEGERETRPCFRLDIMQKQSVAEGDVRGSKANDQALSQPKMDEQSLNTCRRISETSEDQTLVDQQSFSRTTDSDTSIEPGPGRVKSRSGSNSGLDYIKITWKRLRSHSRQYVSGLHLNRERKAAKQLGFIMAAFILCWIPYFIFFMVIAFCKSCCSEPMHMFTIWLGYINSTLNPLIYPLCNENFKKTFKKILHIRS
UniProt P31652, whole entry: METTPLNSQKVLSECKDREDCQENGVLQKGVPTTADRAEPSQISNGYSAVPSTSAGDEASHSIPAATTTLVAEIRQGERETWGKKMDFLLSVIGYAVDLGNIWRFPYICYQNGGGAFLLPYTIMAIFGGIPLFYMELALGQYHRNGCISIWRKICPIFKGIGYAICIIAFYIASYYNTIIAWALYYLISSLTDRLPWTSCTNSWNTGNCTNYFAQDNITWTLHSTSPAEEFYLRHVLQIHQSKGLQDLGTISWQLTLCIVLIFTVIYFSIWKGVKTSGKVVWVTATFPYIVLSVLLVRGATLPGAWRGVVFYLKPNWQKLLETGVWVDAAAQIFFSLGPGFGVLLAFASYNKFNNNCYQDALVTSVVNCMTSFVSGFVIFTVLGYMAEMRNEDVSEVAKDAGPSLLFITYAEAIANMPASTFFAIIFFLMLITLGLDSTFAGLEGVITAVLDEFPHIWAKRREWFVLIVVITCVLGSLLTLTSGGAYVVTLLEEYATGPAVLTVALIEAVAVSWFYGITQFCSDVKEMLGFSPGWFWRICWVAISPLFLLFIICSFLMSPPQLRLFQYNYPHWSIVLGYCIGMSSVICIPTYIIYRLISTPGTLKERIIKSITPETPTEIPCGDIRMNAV

Ki [1]: > 10000 nM
SMILES: CN(C)CCCN1c2ccccc2CCc2ccccc21

Ki (D(2) dopamine receptor): > 10000 nM
Ki (Histamine H1 receptor): 1.78 nM and 1 nM and 4.07 nM
SMILES: CN1CCN2c3ccccc3Cc3ccccc3[C@H]2C1 [MIANSERIN (+)]

Ki [2]: 3980 nM
SMILES: CN1Cc2c(N)cccc2[C@H](c2ccccc2)C1 [(+/-)-2-Methyl-4-phenyl-1,2,3,4-tetrahydro-isoquinolin-8-ylamine]

Source: BindingDB's records for doi:10.1016/0028-3908(88)90149-9 (Organon International, 1988)
